Results on 60 compounds are retold here after ChEMBL document CHEMBL4229498 (Bioorg Med Chem, 2018).

Sequences of proteins named here, by UniProt entry; tags and fusion partners are left off.
UniProt P21554, whole entry: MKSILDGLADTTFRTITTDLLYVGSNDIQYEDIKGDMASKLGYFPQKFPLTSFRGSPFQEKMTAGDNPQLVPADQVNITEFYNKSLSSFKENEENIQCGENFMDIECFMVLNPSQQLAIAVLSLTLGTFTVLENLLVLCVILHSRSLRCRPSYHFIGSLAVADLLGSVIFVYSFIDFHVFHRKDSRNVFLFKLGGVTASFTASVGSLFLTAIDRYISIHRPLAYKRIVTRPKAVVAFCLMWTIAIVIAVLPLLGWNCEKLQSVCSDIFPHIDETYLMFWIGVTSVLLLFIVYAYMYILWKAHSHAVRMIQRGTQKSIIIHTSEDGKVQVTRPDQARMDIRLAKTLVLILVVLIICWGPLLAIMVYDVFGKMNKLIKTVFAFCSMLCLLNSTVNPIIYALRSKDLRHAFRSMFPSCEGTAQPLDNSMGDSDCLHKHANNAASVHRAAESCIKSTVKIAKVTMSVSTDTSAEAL

SMILES strings stand for the structures.

This experiment concerns the target Cannabinoid receptor 1 (Homo sapiens, UniProt P21554). The following applies: HEK293.
In the case of `Cn1nnc(CCC(=O)N2CCN(c3ncnc4c3nc(-c3ccccc3Cl)n4-c3ccc(Cl)cc3)CC2)n1`, the Ke was 740 nM. As to `O=C(NS(=O)(=O)c1ccccc1F)N1CCN(c2ncnc3c2nc(-c2ccccc2Cl)n3-c2ccc(Cl)cc2)CC1`, the Ke was determined as 420 nM.

With `O=C(CN1CCOCC1)N1CCN(c2ncnc3c2nc(-c2ccccc2Cl)n3-c2ccc(Cl)cc2)CC1`, the Ke amounted to 370 nM. The compound `O=C(Nc1ccc(F)cc1F)N1CCN(c2ncnc3c2nc(-c2ccccc2Cl)n3-c2ccc(Cl)cc2)CC1` displayed a Ke of 10 nM. For the compound `O=C(Nc1ccccc1)N1CCN(c2ncnc3c2nc(-c2ccccc2Cl)n3-c2ccc(Cl)cc2)CC1`, the Ke worked out at 3 nM.

As for `O=C(Nc1ccccc1F)N1CCN(c2ncnc3c2nc(-c2ccccc2Cl)n3-c2ccc(Cl)cc2)CC1`, the Ke worked out at 2 nM.

Compound `Cc1cc(NC(=O)N2CCN(c3ncnc4c3nc(-c3ccccc3Cl)n4-c3ccc(Cl)cc3)CC2)no1` came in with a Ke of 150 nM.

Turning to `O=C(CC1CCOCC1)N1CCN(c2ncnc3c2nc(-c2ccccc2Cl)n3-c2ccc(Cl)cc2)CC1`, the Ke worked out at 36 nM. Regarding `O=C(CC1CCCC1)N1CCN(c2ncnc3c2nc(-c2ccccc2Cl)n3-c2ccc(Cl)cc2)CC1`, the Ke is 0.1 nM. The compound `O=C(NC1CCOCC1)N1CCN(c2ncnc3c2nc(-c2ccccc2Cl)n3-c2ccc(Cl)cc2)CC1` yielded a Ke of 2200 nM. Compound `CC(C)CNC(=O)N1CCN(c2ncnc3c2nc(-c2ccccc2Cl)n3-c2ccc(Cl)cc2)CC1` came in with a Ke of 100 nM.

In turn, `O=C(Nc1ccc(F)c(F)c1)N1CCN(c2ncnc3c2nc(-c2ccccc2Cl)n3-c2ccc(Cl)cc2)CC1` registered a Ke of 5 nM. The result for `O=C(OC1COC1)N1CCN(c2ncnc3c2nc(-c2ccccc2Cl)n3-c2ccc(Cl)cc2)CC1` reads 95 nM. For the compound `O=C(NC1(C(F)(F)F)CCCC1)N1CCN(c2ncnc3c2nc(-c2ccccc2Cl)n3-c2ccc(Cl)cc2)CC1`, the Ke is 17 nM. The result for `O=C(C1CCS(=O)(=O)CC1)N1CCN(c2ncnc3c2nc(-c2ccccc2Cl)n3-c2ccc(Cl)cc2)CC1` reads 1800 nM; that for `CN1CCC(NC(=O)N2CCN(c3ncnc4c3nc(-c3ccccc3Cl)n4-c3ccc(Cl)cc3)CC2)CC1`, 4900 nM. The compound `N=C(c1ccc(F)cc1)N1CCN(c2ncnc3c2nc(-c2ccccc2Cl)n3-c2ccc(Cl)cc2)CC1` registered a Ke of 4000 nM.

Compound `O=C(N1CCOCC1)N1CCN(c2ncnc3c2nc(-c2ccccc2Cl)n3-c2ccc(Cl)cc2)CC1` came in with a Ke of 670 nM.

Regarding `O=C(CN1CCCCC1)N1CCN(c2ncnc3c2nc(-c2ccccc2Cl)n3-c2ccc(Cl)cc2)CC1`, the Ke was 34 nM. `O=C(N1CCN(c2ncnc3c2nc(-c2ccccc2Cl)n3-c2ccc(Cl)cc2)CC1)C(F)(F)F` showed a Ke of 0.4 nM.

In the case of `COC(=O)N1CCN(c2ncnc3c2nc(-c2ccccc2Cl)n3-c2ccc(Cl)cc2)CC1`, the Ke amounted to 98 nM. The compound `CCCCS(=O)(=O)N1CCN(c2ncnc3c2nc(-c2ccccc2Cl)n3-c2ccc(Cl)cc2)CC1` displayed a Ke of 0.9 nM. `CCCS(=O)(=O)N1CCN(c2ncnc3c2nc(-c2ccccc2Cl)n3-c2ccc(Cl)cc2)CC1` gave a Ke of 2 nM. In turn, `O=C(NC1CCCC1)N1CCN(c2ncnc3c2nc(-c2ccccc2Cl)n3-c2ccc(Cl)cc2)CC1` came in with a Ke of 54 nM.

Consider `O=C(C1CCSCC1)N1CCN(c2ncnc3c2nc(-c2ccccc2Cl)n3-c2ccc(Cl)cc2)CC1`, for which the Ke is 2 nM.

Consider `Cn1cc(NC(=O)N2CCN(c3ncnc4c3nc(-c3ccccc3Cl)n4-c3ccc(Cl)cc3)CC2)cn1`, for which the Ke amounted to 1200 nM. The result for `CC(C)S(=O)(=O)N1CCN(c2ncnc3c2nc(-c2ccccc2Cl)n3-c2ccc(Cl)cc2)CC1` reads 1 nM; that for `CS(=O)(=O)CCC(=O)N1CCN(c2ncnc3c2nc(-c2ccccc2Cl)n3-c2ccc(Cl)cc2)CC1`, 3200 nM. The same measure for `O=S(=O)(C1CC1)N1CCN(c2ncnc3c2nc(-c2ccccc2Cl)n3-c2ccc(Cl)cc2)CC1`: 17 nM; for `N=C(Nc1ccc(F)cc1)N1CCN(c2ncnc3c2nc(-c2ccccc2Cl)n3-c2ccc(Cl)cc2)CC1`: 510 nM; for `CCS(=O)(=O)N1CCN(c2ncnc3c2nc(-c2ccccc2Cl)n3-c2ccc(Cl)cc2)CC1`: 17 nM. `O=C(CC1CCOC1)N1CCN(c2ncnc3c2nc(-c2ccccc2Cl)n3-c2ccc(Cl)cc2)CC1` (stereo not given) displayed a Ke of 19 nM. The compound `Cn1ccc(NC(=O)N2CCN(c3ncnc4c3nc(-c3ccccc3Cl)n4-c3ccc(Cl)cc3)CC2)n1` yielded a Ke of 1000 nM. `O=S(=O)(CC1CCCCC1)N1CCN(c2ncnc3c2nc(-c2ccccc2Cl)n3-c2ccc(Cl)cc2)CC1` yielded a Ke of 0.6 nM. The compound `CS(=O)(=O)N1CCN(c2ncnc3c2nc(-c2ccccc2Cl)n3-c2ccc(Cl)cc2)CC1` gave a Ke of 3 nM. For the compound `O=C(C1CCOCC1)N1CCN(c2ncnc3c2nc(-c2ccccc2Cl)n3-c2ccc(Cl)cc2)CC1`, the Ke turned out to be 410 nM. As to `O=C(C1COc2ccccc2O1)N1CCN(c2ncnc3c2nc(-c2ccccc2Cl)n3-c2ccc(Cl)cc2)CC1` (stereo not given), the Ke was determined as 6 nM. Take `O=S(=O)(CC1CCOCC1)N1CCN(c2ncnc3c2nc(-c2ccccc2Cl)n3-c2ccc(Cl)cc2)CC1`: the Ke is 4 nM.

With `COCCOC(=O)N1CCN(c2ncnc3c2nc(-c2ccccc2Cl)n3-c2ccc(Cl)cc2)CC1`, the Ke was found to be 54 nM. On to `CCCCC(=O)N1CCN(c2ncnc3c2nc(-c2ccccc2Cl)n3-c2ccc(Cl)cc2)CC1`, for which the Ke worked out at 0.6 nM. For `O=C(Nc1ccc(F)cc1)N1CCN(c2ncnc3c2nc(-c2ccccc2Cl)n3-c2ccc(Cl)cc2)CC1`, the Ke is 2 nM.

In turn, `O=C(OC1CCC1)N1CCN(c2ncnc3c2nc(-c2ccccc2Cl)n3-c2ccc(Cl)cc2)CC1` displayed a Ke of 10 nM. With `O=C(Nc1ccccn1)N1CCN(c2ncnc3c2nc(-c2ccccc2Cl)n3-c2ccc(Cl)cc2)CC1`, the Ke stood at 8 nM.

In the case of `O=S(=O)(CCC(F)(F)F)N1CCN(c2ncnc3c2nc(-c2ccccc2Cl)n3-c2ccc(Cl)cc2)CC1`, the Ke came out at 15 nM.

In the case of `CCOCC(=O)N1CCN(c2ncnc3c2nc(-c2ccccc2Cl)n3-c2ccc(Cl)cc2)CC1`, the Ke amounted to 20 nM. Turning to `O=C(N1CCCC1)N1CCN(c2ncnc3c2nc(-c2ccccc2Cl)n3-c2ccc(Cl)cc2)CC1`, the Ke was 66 nM. Compound `CN1CCC(CNC(=O)N2CCN(c3ncnc4c3nc(-c3ccccc3Cl)n4-c3ccc(Cl)cc3)CC2)CC1` displayed a Ke of 3200 nM. The same measure for `O=C(Nc1ccc(OC(F)F)nc1)N1CCN(c2ncnc3c2nc(-c2ccccc2Cl)n3-c2ccc(Cl)cc2)CC1`: 13 nM; for `O=C(NC1CCCCC1)N1CCN(c2ncnc3c2nc(-c2ccccc2Cl)n3-c2ccc(Cl)cc2)CC1`: 41 nM.

`COCCS(=O)(=O)N1CCN(c2ncnc3c2nc(-c2ccccc2Cl)n3-c2ccc(Cl)cc2)CC1`: the Ke is 50 nM. `O=C(NCC1CCCCC1)N1CCN(c2ncnc3c2nc(-c2ccccc2Cl)n3-c2ccc(Cl)cc2)CC1` registered a Ke of 35 nM.

Take `O=C(OC1CCOCC1)N1CCN(c2ncnc3c2nc(-c2ccccc2Cl)n3-c2ccc(Cl)cc2)CC1`: the Ke came out at 105 nM. Turning to `COCCC(=O)N1CCN(c2ncnc3c2nc(-c2ccccc2Cl)n3-c2ccc(Cl)cc2)CC1`, the Ke amounted to 72 nM.

For the compound `CC(C)(O)CC(=O)N1CCN(c2ncnc3c2nc(-c2ccccc2Cl)n3-c2ccc(Cl)cc2)CC1`, the Ke stood at 200 nM. The result for `CC(C)(C)OC(=O)N1CCN(c2ncnc3c2nc(-c2ccccc2Cl)n3-c2ccc(Cl)cc2)CC1` reads 4 nM; that for `O=C(NCC1CCOCC1)N1CCN(c2ncnc3c2nc(-c2ccccc2Cl)n3-c2ccc(Cl)cc2)CC1`, 5900 nM. The compound `CC(C(=O)N1CCN(c2ncnc3c2nc(-c2ccccc2Cl)n3-c2ccc(Cl)cc2)CC1)c1ccccc1` (stereo not given) came in with a Ke of 1.5 nM. In the case of `CC(=O)N1CCN(c2ncnc3c2nc(-c2ccccc2Cl)n3-c2ccc(Cl)cc2)CC1`, the Ke came out at 120 nM. For the compound `CC(C)(C)CC(=O)N1CCN(c2ncnc3c2nc(-c2ccccc2Cl)n3-c2ccc(Cl)cc2)CC1`, the Ke amounted to 0.14 nM. The result for `CC(C)CS(=O)(=O)N1CCN(c2ncnc3c2nc(-c2ccccc2Cl)n3-c2ccc(Cl)cc2)CC1` reads 0.5 nM.
